In this test the target is SRC (Homo sapiens (Human), UniProt P12931). Briefly: Kinase screening assay (IC50). Conditions: recombinant kinase, SFK member. The test is classed as biochemical.

Sequences of proteins named here, by UniProt entry; tags and fusion partners are left off.
UniProt P12931, whole entry, looked up: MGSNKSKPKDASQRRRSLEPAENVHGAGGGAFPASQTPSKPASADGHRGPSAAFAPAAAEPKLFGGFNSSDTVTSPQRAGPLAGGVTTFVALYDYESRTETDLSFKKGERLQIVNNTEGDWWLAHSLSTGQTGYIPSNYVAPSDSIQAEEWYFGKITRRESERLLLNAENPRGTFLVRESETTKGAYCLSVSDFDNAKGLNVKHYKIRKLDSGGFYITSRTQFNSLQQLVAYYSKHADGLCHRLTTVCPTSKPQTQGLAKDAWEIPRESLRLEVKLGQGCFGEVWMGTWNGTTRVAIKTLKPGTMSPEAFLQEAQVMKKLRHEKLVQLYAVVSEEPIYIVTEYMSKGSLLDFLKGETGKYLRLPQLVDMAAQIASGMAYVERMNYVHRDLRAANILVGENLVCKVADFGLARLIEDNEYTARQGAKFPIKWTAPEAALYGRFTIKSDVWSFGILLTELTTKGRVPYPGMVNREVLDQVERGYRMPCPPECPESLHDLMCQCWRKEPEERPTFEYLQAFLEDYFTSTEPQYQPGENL

For orientation: IC50 means the concentration needed to halve the response being measured. Consider `COc1cc(-c2nn(CCN3CCC(CN(C)C)CC3)c3ncnc(N)c23)ccc1NC(=O)OC(C)(C)C` [Compound 503, tert-butyl N-[4-[4-amino-1-[2-[4-(dimethylaminomethyl)-1-piperidyl]ethyl]pyrazolo[3,4-d]pyrimidin-3-yl]-2-methoxy-phenyl]carbamate], for which the concentration for half-maximal inhibition (IC50) was less than 0.5 nM.
